From US20230212170A1, “INHIBITORS OF KRAS G12C PROTEIN AND USES THEREOF” (SHANGHAI ANTENGENE CORPORATION LIMITED, priority 2020, published 2023)

Amino acid sequences for entries named in this document (tags omitted). Residues count along the entry.
UniProt P01116, 1-188 isoform 2 G12C: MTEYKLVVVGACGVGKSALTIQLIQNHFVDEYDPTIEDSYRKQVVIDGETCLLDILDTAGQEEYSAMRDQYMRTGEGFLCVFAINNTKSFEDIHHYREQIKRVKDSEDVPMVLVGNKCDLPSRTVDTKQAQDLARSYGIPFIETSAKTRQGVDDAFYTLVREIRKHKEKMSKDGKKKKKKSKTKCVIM

How the values were obtained:
A549 = experiment: Tumor cell anti-proliferation assay (CTG assay), A549; settings: read-out: IC50 A549, A549, 3-days incubation
Method: (§1) Assay 3: Tumor Cell Anti-Proliferation Assay (CTG Assay)
(§2) Tested tumor cell lines (MIA PaCa-2, NCI-H358, and A549) were seeded to the 96-well plate for overnight, then cells were treated with the test compound at 9 serially diluted concentrations in triplicate. After 3-days incubation with the test compound, the CTG assay was performed to evaluate the IC50. The 3 cell lines were tested in the same manner. Cisplatin were used as the positive control.
(§3) Day −1: Cell Plating for Cell Lines
(§4) 1. Adjust the cell concentration to the appropriated number with the medium, and for each well of a 96-well plate, add 90 μl cell suspensions (Cell concentration will be adjusted according to the data base or density optimization assay). 2. Incubate the plates for overnight in humidified incubator at […] with 5% CO2.
(§5) Day 0: T0 Plate Reading and Compound Treatment
(§6) 3. Add 10 μL culture medium to each well of plate A for T0 reading.
(§7) 4. Equilibrate the plate and its content at RT for approximately 30 min.
(§8) 5. Add 50 μL CellTiter-Glo® Reagent to each well for T0 reading.
(§9) 6. Mix contents for 2 minutes on an orbital shaker to facilitate cell lysis.
(§10) 7. Allow the plate to incubate at room temperature for 10 minutes to stabilize the luminescent signal. […]
(§11) 9. Record luminescence using an Envision Multi Label Reader. […]
(§12) Day 3: Plate Reading for 3-Day Assay […]
(§13) 17. Record luminescence using an Envision Multi Label Reader. […]

KRAS G12C = KRAS G12C (Homo sapiens, UniProt P01116, G12C); experiment: KRAS GDP FI assay; settings: read-out: KRAS GDP FI IC50; kinetic reading Ex580/Em620 for 120 min
MIA PaCa-2 = experiment: Tumor cell anti-proliferation assay (CTG assay), MIA PaCa-2; settings: read-out: IC50 MIA PaCa-2, MIA PaCa-2, 3-days incubation
Method: as §1, §2, §3, §4, §5, §6, §7, §8, §9, §10, §11, §12, §13

[1] = Pharmacokinetics study in plasma of ICR mice, intravenous or oral administration; settings: male ICR mice
Method: The purpose of this study is to determine the pharmacokinetics parameters in plasma of compounds in ICR mice following intravenous or oral administration.
The formulations were based on sponsor's recommendation and will be prepared by the Testing Facility.
Species and Strain: ICR Mice (Male)
Source: Sino-British SIPPR Lab Animal Ltd, Shanghai
Number of Animals: Ordered: 8; Needed: 6
The test article was be administered via a single IV or PO dosing.
IV group: Post-dose at 5 min, 15 min, 30 min, 1 h, 2 h, 4 h, 8 h and 24 h.
PO group: Post-dose at 15 min, 30 min, 1 h, 2 h, 4 h, 6 h, 8 h and 24 h.
30˜40 μL/sample. Samples were be placed in tubes containing heparin sodium and stored on ice until centrifuged.
The PK blood samples were centrifuged at approximately 6800G for 6 minutes at 2-8° C. and the resulting plasma was transferred to appropriately labeled tubes within 2 hour of blood collection/centrifugation and stored frozen at approximately −70° C.
Method development and biological samples analysis for the test articles (Sodium heparin anticoagulant) were be performed by Testing Facility by means of LC-MS/MS. The analytical results were be confirmed using quality control samples for intra-assay variation. The accuracy of >66.7% of the quality control samples were be between 80-120% of the known value(s).
Pharmacokinetics Analysis
Standard set of parameters including Area Under the Curve (AUC(0-t) and AUC(0-∞)), elimination half-live (T1/2), maximum plasma concentration (Cmax) and time to reach maximum plasma concentration (Tmax) and other parameters were be calculated using Phoenix WinNonlin 7.0 (Pharsight, USA) by the Study Director.

NCI-H358 = experiment: Tumor cell anti-proliferation assay (CTG assay), NCI-H358; settings: read-out: IC50 NCI-H358, NCI-H358, 3-days incubation
Method: as §1, §2, §3, §4, §5, §6, §7, §8, §9, §10, §11, §12, §13

pIC50 (A549): < 5.00 | pIC50 (KRAS G12C): 6.90 | pIC50 (MIA PaCa-2): 6.83 | AUC ([1]; IV, 1 mpk, plasma): 1,170.65 nM · h | C0 ([1]; IV, 1 mpk, plasma): 0.435 µM | Cl ([1]; IV, 1 mpk, plasma): 1.193 L/h/kg | T1/2 ([1]; IV, 1 mpk, plasma): 2.74 h | Vd ([1]; IV, 1 mpk, plasma): 4.13 L/kg | F ([1]; PO 10 mpk vs IV 1 mpk): 57.89% | AUC ([1]; PO, 10 mpk, fasted, plasma): 6,776.89 nM · h | Cmax ([1]; PO, 10 mpk, fasted, plasma): 0.793 µM | T1/2 ([1]; PO, 10 mpk, fasted, plasma): 2.76 h | Tmax ([1]; PO, 10 mpk, fasted, plasma): 1.00 h | pIC50 (NCI-H358): 7.20
Compound: C=CC(=O)N1C[C@H](C)N(c2nc(OC[C@@H]3CCCN3C)nc3c(=O)n(-c4cccc5cccc(C)c45)c(C(F)(F)F)nc23)[C@@H](C)C1

pIC50: −log10 of the molar value.
